The values below are quoted from earlier work in US6149948A, “Method of decreasing plasma cholesterol and triglycerides with a chromium-containing complex” (University of Alabama, priority 1999, dated 2000).

The data set concerns peripheral lymphocytes. The note with it: sub-cytotoxic concentrations; cited from earlier work.

Take chromium acetate hydroxide: the DNA strand breaks entry is “fail to produce DNA strand breaks”.
